For 1 substance, solubility in water results are on record in US20170252319A1, “Flavonoid-Poly(ethylene glycol) Complex Comprising Flavonoid Compounds and Poly(ethylene glycol) and Preparation Method Thereof” (Korea Advanced Institute of Science and Technology, priority 2016, published 2017).

This data set can be described thus: Confirmation of water-solubility (appearance of solution, photograph). The class given is physicochemical. The settings on record: dissolved in saline or biological buffer at high concentration; complexes at all flavonoid:PEG weight ratios tested (catechin 1:1-10, morin 1:10-500, quercetin 1:10-1000). As for the experimental part: To investigate the water-solubility of the dried catechin-PEG complex prepared in step 1 above, the dried catechin-PEG complex powder was dissolved in an aqueous solution solvent such as saline or biological buffer at a high concentration, followed by confirmation of the solubility.
To investigate the water-solubility of the dried morin-PEG complex prepared in step 1 above, the dried morin-PEG complex powder was dissolved in an aqueous solution solvent such as saline or biological buffer at a high concentration, followed by confirmation of the solubility.
To investigate the water-solubility of the dried quercetin-PEG complex prepared in step 1 above, the dried quercetin-PEG complex powder was dissolved in an aqueous solution solvent such as saline or biological buffer at a high concentration, followed by confirmation of the solubility.

For Catechin hydrate [non-treated catechin], the solubility in water entry was “very low”.
